Test results published in patent publication US20230150974A1 (Foghorn Therapeutics Inc., priority 2020, published 2023).

Protein sequences, listed by entry. Tags and fused reporters are not part of them.
UniProt P51531, whole entry: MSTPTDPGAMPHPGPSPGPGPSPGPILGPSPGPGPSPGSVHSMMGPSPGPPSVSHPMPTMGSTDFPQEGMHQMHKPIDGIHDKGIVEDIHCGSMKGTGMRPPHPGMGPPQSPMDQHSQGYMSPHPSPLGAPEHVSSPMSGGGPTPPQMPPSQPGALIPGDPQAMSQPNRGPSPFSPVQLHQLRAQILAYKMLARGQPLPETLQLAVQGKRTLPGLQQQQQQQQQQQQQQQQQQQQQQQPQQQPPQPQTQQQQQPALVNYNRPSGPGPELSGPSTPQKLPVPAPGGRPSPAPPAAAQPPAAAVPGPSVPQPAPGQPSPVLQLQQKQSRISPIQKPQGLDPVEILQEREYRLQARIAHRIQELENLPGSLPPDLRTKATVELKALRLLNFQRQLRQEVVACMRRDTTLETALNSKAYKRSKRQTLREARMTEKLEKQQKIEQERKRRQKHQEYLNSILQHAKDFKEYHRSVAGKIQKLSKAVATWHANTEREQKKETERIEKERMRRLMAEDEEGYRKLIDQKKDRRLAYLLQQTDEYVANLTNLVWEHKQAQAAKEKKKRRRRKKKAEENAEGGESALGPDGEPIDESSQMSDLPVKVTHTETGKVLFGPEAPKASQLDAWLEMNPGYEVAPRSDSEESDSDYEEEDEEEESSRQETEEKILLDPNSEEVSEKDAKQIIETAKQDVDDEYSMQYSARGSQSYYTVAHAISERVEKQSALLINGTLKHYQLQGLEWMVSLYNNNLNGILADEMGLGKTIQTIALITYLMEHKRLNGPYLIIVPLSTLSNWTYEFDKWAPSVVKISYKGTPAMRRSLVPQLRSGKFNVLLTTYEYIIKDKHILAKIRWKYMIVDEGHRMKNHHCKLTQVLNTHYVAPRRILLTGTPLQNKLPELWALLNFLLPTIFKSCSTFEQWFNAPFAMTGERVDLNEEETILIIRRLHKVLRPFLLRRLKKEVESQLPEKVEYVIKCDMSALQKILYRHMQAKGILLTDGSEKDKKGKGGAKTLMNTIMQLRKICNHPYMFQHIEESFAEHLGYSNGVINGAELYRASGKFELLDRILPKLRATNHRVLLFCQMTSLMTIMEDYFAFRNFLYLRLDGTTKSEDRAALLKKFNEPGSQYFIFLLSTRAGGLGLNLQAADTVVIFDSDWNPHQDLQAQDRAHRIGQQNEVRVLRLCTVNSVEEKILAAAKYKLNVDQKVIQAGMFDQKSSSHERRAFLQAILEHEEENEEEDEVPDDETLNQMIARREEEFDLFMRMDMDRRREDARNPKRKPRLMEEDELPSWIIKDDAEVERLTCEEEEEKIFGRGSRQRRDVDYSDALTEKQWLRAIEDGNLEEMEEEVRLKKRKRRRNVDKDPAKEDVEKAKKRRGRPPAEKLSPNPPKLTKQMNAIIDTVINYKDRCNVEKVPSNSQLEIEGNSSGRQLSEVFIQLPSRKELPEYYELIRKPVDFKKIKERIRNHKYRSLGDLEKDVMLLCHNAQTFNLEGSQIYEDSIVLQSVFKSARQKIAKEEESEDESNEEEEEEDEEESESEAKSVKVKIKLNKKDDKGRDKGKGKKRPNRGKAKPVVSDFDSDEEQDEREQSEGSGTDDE
UniProt P51532, whole entry: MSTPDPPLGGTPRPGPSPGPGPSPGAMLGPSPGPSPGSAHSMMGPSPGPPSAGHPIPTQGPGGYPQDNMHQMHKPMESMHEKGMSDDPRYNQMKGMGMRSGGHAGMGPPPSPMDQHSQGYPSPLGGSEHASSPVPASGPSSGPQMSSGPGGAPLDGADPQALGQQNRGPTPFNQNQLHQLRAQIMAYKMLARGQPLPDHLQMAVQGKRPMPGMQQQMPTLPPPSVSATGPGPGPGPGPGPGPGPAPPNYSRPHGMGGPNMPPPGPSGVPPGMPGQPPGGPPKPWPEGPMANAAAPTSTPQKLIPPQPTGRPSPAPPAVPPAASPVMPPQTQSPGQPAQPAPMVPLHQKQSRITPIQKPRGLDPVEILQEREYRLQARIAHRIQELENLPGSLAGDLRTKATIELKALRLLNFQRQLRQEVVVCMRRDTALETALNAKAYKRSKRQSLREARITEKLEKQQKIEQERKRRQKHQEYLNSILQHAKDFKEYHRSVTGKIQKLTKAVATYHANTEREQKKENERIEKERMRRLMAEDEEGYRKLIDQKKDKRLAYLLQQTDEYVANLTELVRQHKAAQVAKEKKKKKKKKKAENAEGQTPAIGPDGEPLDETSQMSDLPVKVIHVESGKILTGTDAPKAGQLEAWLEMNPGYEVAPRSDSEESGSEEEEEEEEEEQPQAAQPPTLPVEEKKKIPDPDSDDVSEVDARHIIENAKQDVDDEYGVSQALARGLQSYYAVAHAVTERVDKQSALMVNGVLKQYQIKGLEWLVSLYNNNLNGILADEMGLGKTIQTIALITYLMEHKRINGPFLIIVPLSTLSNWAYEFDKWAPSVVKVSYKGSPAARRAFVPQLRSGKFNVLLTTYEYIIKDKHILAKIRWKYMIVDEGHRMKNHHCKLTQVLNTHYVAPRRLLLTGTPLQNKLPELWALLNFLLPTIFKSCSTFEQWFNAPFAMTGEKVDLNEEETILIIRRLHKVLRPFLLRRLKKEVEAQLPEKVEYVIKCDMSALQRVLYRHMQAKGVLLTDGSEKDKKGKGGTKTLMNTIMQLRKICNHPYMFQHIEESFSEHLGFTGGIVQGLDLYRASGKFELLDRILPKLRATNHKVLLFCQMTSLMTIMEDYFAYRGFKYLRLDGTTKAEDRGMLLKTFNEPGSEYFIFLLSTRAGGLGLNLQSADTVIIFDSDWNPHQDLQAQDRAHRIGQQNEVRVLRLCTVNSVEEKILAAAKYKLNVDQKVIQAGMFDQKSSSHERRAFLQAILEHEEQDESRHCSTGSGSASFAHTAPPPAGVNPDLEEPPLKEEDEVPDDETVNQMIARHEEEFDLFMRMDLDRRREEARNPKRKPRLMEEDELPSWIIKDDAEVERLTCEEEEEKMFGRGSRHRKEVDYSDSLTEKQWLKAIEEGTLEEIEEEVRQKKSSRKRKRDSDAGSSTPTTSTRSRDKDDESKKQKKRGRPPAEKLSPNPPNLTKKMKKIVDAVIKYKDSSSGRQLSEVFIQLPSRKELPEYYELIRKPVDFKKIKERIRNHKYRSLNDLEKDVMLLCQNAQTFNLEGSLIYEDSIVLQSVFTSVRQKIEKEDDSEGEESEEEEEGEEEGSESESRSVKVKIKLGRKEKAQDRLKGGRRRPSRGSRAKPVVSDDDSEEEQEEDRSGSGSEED

These compounds were tested against T1, HiBiT-BRM (Homo sapiens, UniProt P51531) (assay: HiBiT-BRM cell-based degradation assay (Nano-Glo HiBiT Lytic Detection)). Settings: HeLa cells expressing HiBiT-BRM, 24 h.
T1 construct: expressed in transfected cells
Protocol: (§1) Procedure: A stable HeLa cell line expressing HiBiT-BRM was generated. On day 0, 5000 cells were seeded in 40 μL of media into each well of 384-well cell culture plates. […] Subsequently plates were incubated for 24 h in a standard tissue culture incubator and equilibrated at room temperature for 15 minutes. Nano-Glo HiBiT Lytic Detection System (Promega N3050) reagent was freshly prepared and 20 ul was added to each well. Upon addition of this LgBit-containing reagent, the HiBiT and LgBiT proteins associate to form the luminescent NanoBiT luciferase. The plates were shaken for 10 minutes at room temperature and the bioluminescence read using an EnVision plate reader (PerkinElmer).
(§2) The degradation % was calculated using the following formula: % degradation=100%−100%×(LumSample−LumLC)/(LumHC−LumLC). DMSO treated cells are employed as High Control (HC) and 2 μM of a known BRM/BRG1 degrader standard treated cells are employed as Low Control (LC).

SMILES | BRM HiBit Degradation Maximum (%)
Nc1nnc(-c2ccccc2O)cc1OCCc1ccc(CNC(=O)CCCCNc2cccc3nnn(C4CCC(=O)NC4=O)c(=O)c23)cc1 (stereo not drawn) [Compound 1, N-(4-(2-((3-amino-6-(2-hydroxyphenyl)pyridazin-4-yl)oxy)ethyl)benzyl)-5-((3-(2,6-dioxopiperidin-3-yl)-4-oxo-3,4-dihydrobenzo[d][1,2,3]triazin-5-yl)amino)pentanamide] | B (“B” indicates maximum degradation ≥50%)

The compounds below were run against T2, HiBit-BRG1 (Homo sapiens, UniProt P51532) (assay: HiBit-BRG1 cell-based degradation assay (Nano-Glo HiBiT Lytic Detection)). Settings: HeLa, 24 h, read-out: BRG1 HiBit Degradation Maximum (%).
T2 construct: expressed in transfected cells
Protocol: as §1
For measurement of BRG1 degradation, a stable HeLa cell line expressing HiBit-BRG1 and LgBit was generated. The same protocol as above was then followed.
as §2

SMILES | Dmax
Nc1nnc(-c2ccccc2O)cc1OCCc1ccc(CNC(=O)CCCCNc2cccc3c2C(=O)N(C2CCC(=O)NC2=O)C3=O)cc1 (stereo not drawn) [Compound 4, N-[[4-(2-[[3-amino-6-(2-hydroxyphenyl)pyridazin-4-yl]oxy]ethyl)phenyl]methyl]-5-[[2-(2,6-dioxopiperidin-3-yl)-1,3-dioxoisoindol-4-yl]amino]pentanamide] | < 50%
Nc1nnc(-c2ccccc2O)cc1OCCc1ccc(CNC(=O)CCCCOc2ccc3c(c2)C(=O)N(C2CCC(=O)NC2=O)C3=O)cc1 (stereo not drawn) [Compound 5, N-(4-(2-((3-amino-6-(2-hydroxyphenyl)pyridazin-4-yl)oxy)ethyl)benzyl)-5-((2-(2,6-dioxopiperidin-3-yl)-1,3-dioxoisoindolin-5-yl)oxy)pentanamide] | < 50%
Nc1nnc(-c2ccccc2O)cc1N1CCN(C(=O)C2CC2CNC(=O)COc2ccc3c(c2)C(=O)N(C2CCC(=O)NC2=O)C3=O)CC1 (stereo not drawn) [Compound 78, N-[(2-[4-[3-amino-6-(2-hydroxyphenyl)pyridazin-4-yl]piperazine-1-carbonyl]cyclopropyl)methyl]-2-[[2-(2,6-dioxopiperidin-3-yl)-1,3-dioxoisoindol-5-yl]oxy]acetamide] | < 50%
Nc1nnc(-c2ccccc2O)cc1OCCc1ccc(CNC(=O)CCCCOc2ccc3c(c2)C(=O)N(C2CCC(=O)NC2=O)C3)cc1 (stereo not drawn) [Compound 128, N-(4-(2-((3-amino-6-(2-hydroxyphenyl)pyridazin-4-yl)oxy)ethyl)benzyl)-5-((2-(2,6-dioxopiperidin-3-yl)-3-oxoisoindolin-5-yl)oxy)pentanamide] | < 50%
Nc1nnc(-c2ccccc2O)cc1OCCc1ccc(CNCCCCCOc2cccc3c2C(=O)N(C2CCC(=O)NC2=O)C3=O)cc1 (stereo not drawn) [Compound 9, 4-[[5-([[4-(2-[[3-amino-6-(2-hydroxyphenyl)pyridazin-4-yl]oxy]ethyl)phenyl]methyl]amino)pentyl]oxy]-2-(2,6-dioxopiperidin-3-yl)isoindole-1,3-dione] | < 50%
Nc1nnc(-c2ccccc2O)cc1OCCc1ccc(CNC(=O)CCCCCCCCCNc2ccc3c(c2)C(=O)N(C2CCC(=O)NC2=O)C3=O)cc1 (stereo not drawn) [Compound 75, N-(4-(2-((3-amino-6-(2-hydroxyphenyl)pyridazin-4-yl)oxy)ethyl)benzyl)-10-((2-(2,6-dioxopiperidin-3-yl)-1,3-dioxoisoindolin-5-yl)amino)decanamide] | < 50%
Nc1nnc(-c2ccccc2O)cc1N1CCN(C(=O)C2CC2CNC(=O)COc2cccc3c2C(=O)N(C2CCC(=O)NC2=O)C3=O)CC1 (stereo not drawn) [Compound 77, N-[(2-[4-[3-amino-6-(2-hydroxyphenyl)pyridazin-4-yl]piperazine-1-carbonyl]cyclopropyl)methyl]-2-[[2-(2,6-dioxopiperidin-3-yl)-1,3-dioxoisoindol-4-yl]oxy]acetamide] | < 50%
Nc1nnc(-c2ccccc2O)cc1OCCc1ccc(CNC(=O)CCCCNc2cccc3nnn(C4CCC(=O)NC4=O)c(=O)c23)cc1 (stereo not drawn) [Compound 1, N-(4-(2-((3-amino-6-(2-hydroxyphenyl)pyridazin-4-yl)oxy)ethyl)benzyl)-5-((3-(2,6-dioxopiperidin-3-yl)-4-oxo-3,4-dihydrobenzo[d][1,2,3]triazin-5-yl)amino)pentanamide] | < 50%
Nc1nnc(-c2ccccc2O)cc1OCCc1ccc(CNC(=O)CCCCNc2cccc3c2CN(C2CCC(=O)NC2=O)C3=O)cc1 (stereo not drawn) [Compound 2, N-(4-(2-((3-amino-6-(2-hydroxyphenyl)pyridazin-4-yl)oxy)ethyl)benzyl)-5-((2-(2,6-dioxopiperidin-3-yl)-1-oxoisoindolin-4-yl)amino)pentanamide] | < 50%
Nc1nnc(-c2ccccc2O)cc1OCCc1ccc(CNC(=O)CCCCOc2ccc3c(c2)CN(C2CCC(=O)NC2=O)C3=O)cc1 (stereo not drawn) [Compound 129, N-(4-(2-((3-amino-6-(2-hydroxyphenyl)pyridazin-4-yl)oxy)ethyl)benzyl)-5-((2-(2,6-dioxopiperidin-3-yl)-1-oxoisoindolin-5-yl)oxy)pentanamide] | < 50%
Nc1nnc(-c2ccccc2O)cc1OCCc1ccc(CNC(=O)NCCCOc2cccc3c2C(=O)N(C2CCC(=O)NC2=O)C3=O)cc1 (stereo not drawn) [Compound 8, 1-(4-(2-((3-amino-6-(2-hydroxyphenyl)pyridazin-4-yl)oxy)ethyl)benzyl)-3-(3-((2-(2,6-dioxopiperidin-3-yl)-1,3-dioxoisoindolin-4-yl)oxy)propyl)urea] | < 50%
